The chains behind the UniProt entries cited, without tags or fusion partners. Residues count along the entry.
UniProt Q06124, 1-525 limits assumed: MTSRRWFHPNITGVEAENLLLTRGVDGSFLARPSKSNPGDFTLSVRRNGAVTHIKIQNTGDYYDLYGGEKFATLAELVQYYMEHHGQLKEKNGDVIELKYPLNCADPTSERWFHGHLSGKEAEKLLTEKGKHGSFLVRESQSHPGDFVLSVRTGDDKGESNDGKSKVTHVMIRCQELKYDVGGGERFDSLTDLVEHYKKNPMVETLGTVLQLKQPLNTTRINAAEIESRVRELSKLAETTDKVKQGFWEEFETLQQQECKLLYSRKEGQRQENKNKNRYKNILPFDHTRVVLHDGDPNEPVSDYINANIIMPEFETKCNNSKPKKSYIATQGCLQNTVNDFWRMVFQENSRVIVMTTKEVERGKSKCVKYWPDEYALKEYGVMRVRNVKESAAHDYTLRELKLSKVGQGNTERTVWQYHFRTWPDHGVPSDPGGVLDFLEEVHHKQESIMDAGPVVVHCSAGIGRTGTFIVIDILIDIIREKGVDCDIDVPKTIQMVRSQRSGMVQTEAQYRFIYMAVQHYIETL

According to US20240109900A1, “AZABICYCLIC SHP2 INHIBITORS” (IRBM S.P.A., priority 2021, published 2024):

What was measured:
[1] = tested on: ERK phosphorylation in KYSE-520 cells; assay: Phospho-ERK cellular assay; assay type: cell-based; details: read-out: PERK IC50, 2 h at 37° C., phospho-ERK1/2 (Thr202/Tyr204) TR-FRET, tested form: TFA
Description: ERK phosphorylation was detected using the “Advanced phospho-ERK1/2 (Thr202/Tyr204)” TR-FRET kit (Cisbio, Cat #64AERPEG/H), following the manufacturer reagents and instructions.
Briefly, 20.000/well KYSE-520 cells (DSMZ ACC 371) were plated in 6 μL RPMI-1640 (Invitrogen) growth medium, into 384 white low-volume high base TC microplates (Greiner). After an overnight incubation, cells were treated with DMSO serial diluted compounds and incubated for 2 h at 37° C. After incubation, 2 μL/well of 4×Lysis Buffer (Cisbio 64KL1FDF), were added and incubated with cells for 30 min on gentle shaking. Finally, lysates were added with 2 μL/well of Eu cryptate (donor) and D2 (acceptor) conjugated antibodies (as provided by the Cisbio kit #64AERPEG/H) diluted 1:100 in Detection Buffer (as provided by the Cisbio kit #64AERPEG/H). Plates were then sealed and incubated at room temperature in the dark. After an overnight incubation, the TR-FRET signal was detected on a suitable reader (Envision, PerkinElmer). The lower the TR-FRET signal the higher the higher the SHP2 inhibition in cells.
The activity of each compound dilution was calculated as percentage between vehicle DMSO treated cells and no cells, 0% inhibition and 100% inhibition respectively. The percentage activity is fitted against the compound dilutions with a four-parameter logistic regression. The inflection point (i.e. the concentration at which half-maximal inhibition is achieved) is the IC50.

[2] = molecular target: SHP-2 enzyme (Met1-Leu525) (Homo sapiens (Human), UniProt Q06124); assay: SHP2 inhibition enzymatic assay; assay type: biochemical; details: read-out: SHP2wt-IC50; 0.5 nM SHP-2 activated by 500 nM IRS1 peptide, 75 μM DiFMUP substrate; tested form: TFA

Cc1csc([C@@]2(CN)[C@@H]3CN(c4cnc5c(-c6ccc7c(=O)[nH]ccc7c6)n[nH]c5n4)C[C@@H]32)n1
IC50 [1]: < 1000 nM

Cn1cnc2ccc(-c3n[nH]c4nc(N5CC[C@@H]6[C@H](C5)[C@@]6(CN)c5ccccc5F)cnc34)cc21
IC50 [2]: < 500 nM
IC50 [1]: < 1000 nM

Cc1csc([C@@]2(CN)[C@@H]3CN(c4cnc5c(-c6ccnc(C)c6F)n[nH]c5n4)C[C@@H]32)n1
IC50 [1]: < 1000 nM

Cc1csc([C@@]2(CN)[C@@H]3CN(c4cnc5c(-c6ccc7c(c6)n(C)c(=O)n7C)n[nH]c5n4)C[C@@H]32)n1
IC50 [2]: < 500 nM
IC50 [1]: < 1000 nM

NC[C@]1(c2ccccc2F)[C@@H]2CCN(c3cnc4c(-c5ccc6[nH]c(=O)sc6c5Cl)n[nH]c4n3)C[C@@H]21
IC50 [2]: < 500 nM
IC50 [1]: < 1000 nM

NC[C@]1(c2ccccc2F)[C@@H]2CCN(c3cnc4c(-c5cnc6c(c5)CC(=O)N6)n[nH]c4n3)C[C@@H]21
IC50 [2]: < 500 nM
IC50 [1]: < 1000 nM

NC[C@]1(c2ccccc2F)[C@@H]2CCN(c3cnc4c(-c5ccc6ncn(C(F)F)c6c5)n[nH]c4n3)C[C@@H]21
IC50 [2]: < 500 nM
IC50 [1]: < 1000 nM

Cc1csc([C@@]2(CN)[C@@H]3CN(c4cnc5c(-c6ccc7nn(C(F)F)cc7c6F)n[nH]c5n4)C[C@@H]32)n1
IC50 [2]: < 500 nM
IC50 [1]: < 1000 nM

Cc1csc([C@@]2(CN)[C@@H]3CN(c4cnc5c(-c6ccc7c(=O)[nH]ccc7c6F)n[nH]c5n4)C[C@@H]32)n1
IC50 [2]: < 500 nM
IC50 [1]: < 1000 nM

NC[C@]1(c2ccccc2F)[C@@H]2CCN(c3cnc4c(-c5ccc6c(=O)[nH]cnc6c5)n[nH]c4n3)C[C@@H]21
IC50 [2]: < 500 nM
IC50 [1]: < 1000 nM

CC(=O)N1CCc2cc(-c3n[nH]c4nc(N5CC[C@@H]6[C@H](C5)[C@@]6(CN)c5ccccc5F)cnc34)ccc21
IC50 [2]: < 500 nM
IC50 [1]: < 1000 nM

COCCn1ccc2c(F)c(-c3n[nH]c4nc(N5CC[C@@H]6[C@H](C5)[C@@]6(CN)c5ccccc5F)cnc34)ccc2c1=O
IC50 [1]: < 1000 nM

NC[C@]1(c2ccccc2F)[C@@H]2CCN(c3cnc4c(-c5cccc6c5CCNC6=O)n[nH]c4n3)C[C@@H]21
IC50 [2]: < 500 nM
IC50 [1]: < 1000 nM

Cc1csc([C@@]2(CN)[C@@H]3CN(c4cnc5c(-c6ccc7c(c6)CC(=O)N7C)n[nH]c5n4)C[C@@H]32)n1
IC50 [1]: < 1000 nM

NC[C@]1(c2ccccc2F)[C@@H]2CCN(c3cnc4c(-c5ccc6nn(C(F)F)cc6c5F)n[nH]c4n3)C[C@@H]21
IC50 [2]: < 500 nM
IC50 [1]: < 1000 nM

Cn1ccc2cc(-c3n[nH]c4nc(N5CC[C@@H]6[C@H](C5)[C@@]6(CN)c5ccccc5F)cnc34)ccc2c1=O
IC50 [2]: < 500 nM
IC50 [1]: < 1000 nM

NC[C@]1(c2ccccc2F)[C@@H]2CCN(c3cnc4c(-c5ccc6c(=O)[nH]ccc6c5F)n[nH]c4n3)C[C@@H]21
IC50 [2]: < 500 nM
IC50 [1]: < 1000 nM
